By inhibition is commonly meant the relative decrease from the control value, in per cent.

The chains behind the UniProt entries cited, without tags or fusion partners.
UniProt O14727, whole entry: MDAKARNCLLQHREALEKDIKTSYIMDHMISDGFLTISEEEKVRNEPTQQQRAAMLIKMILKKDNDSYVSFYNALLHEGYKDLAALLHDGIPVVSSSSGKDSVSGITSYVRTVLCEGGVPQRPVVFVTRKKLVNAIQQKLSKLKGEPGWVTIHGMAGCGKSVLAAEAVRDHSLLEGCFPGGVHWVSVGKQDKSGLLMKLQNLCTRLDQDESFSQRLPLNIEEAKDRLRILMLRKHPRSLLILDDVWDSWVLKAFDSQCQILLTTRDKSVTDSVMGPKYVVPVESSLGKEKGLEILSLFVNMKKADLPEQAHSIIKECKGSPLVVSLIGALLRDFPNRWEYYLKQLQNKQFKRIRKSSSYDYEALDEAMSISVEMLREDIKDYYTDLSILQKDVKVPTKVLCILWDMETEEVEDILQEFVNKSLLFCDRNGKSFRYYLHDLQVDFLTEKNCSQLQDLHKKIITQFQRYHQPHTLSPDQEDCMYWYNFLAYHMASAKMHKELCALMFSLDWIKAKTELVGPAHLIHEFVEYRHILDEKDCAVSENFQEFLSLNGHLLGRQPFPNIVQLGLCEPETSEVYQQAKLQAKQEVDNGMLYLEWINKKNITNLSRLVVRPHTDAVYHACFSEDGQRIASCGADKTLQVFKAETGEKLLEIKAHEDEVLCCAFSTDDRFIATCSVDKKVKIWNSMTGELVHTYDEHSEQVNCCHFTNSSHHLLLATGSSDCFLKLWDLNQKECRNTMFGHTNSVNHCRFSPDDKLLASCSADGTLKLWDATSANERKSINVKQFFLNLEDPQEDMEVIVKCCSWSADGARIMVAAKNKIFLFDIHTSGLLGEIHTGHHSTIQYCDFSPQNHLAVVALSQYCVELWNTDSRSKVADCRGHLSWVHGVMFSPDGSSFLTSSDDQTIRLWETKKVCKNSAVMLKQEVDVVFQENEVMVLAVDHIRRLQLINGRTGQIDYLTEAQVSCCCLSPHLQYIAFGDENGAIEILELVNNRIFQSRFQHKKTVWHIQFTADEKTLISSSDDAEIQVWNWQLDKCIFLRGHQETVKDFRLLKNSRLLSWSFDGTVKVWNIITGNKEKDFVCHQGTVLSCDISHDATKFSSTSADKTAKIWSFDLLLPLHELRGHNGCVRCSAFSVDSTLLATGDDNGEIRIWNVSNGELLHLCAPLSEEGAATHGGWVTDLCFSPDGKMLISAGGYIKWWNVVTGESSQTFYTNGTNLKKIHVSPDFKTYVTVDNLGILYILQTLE

Only a part is listed here, and it is no random draw. The source made the active and inactive calls. How the source made its calls: active means inhibition of at least 40% at 20 µM; inactive means the rest.

The test concerns the target Apoptotic protease-activating factor 1 (Homo sapiens) (UniProt O14727). Briefly: inhibitors of human Apaf-1 apoptosome, primary screen, biochemical, DEVD-Rh110 fluorescence, uHTS (AID 489030).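 Further: plate controls were DMSO wells for no effect and DEVD-CHO caspase inhibitor wells for full effect.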 The settings on record: reconstituted apoptosome caspase-3 activity, at 20 µM, active compounds read high. The gist of the method: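 Medium: Hepes buffer, pH 7.5 / System: biochemical Apaf-1 apoptosome reconstitution / Measured by: Rh110 fluorescence, excitation 480 nm, emission 540 nm / Times: compound with Apaf-1, dATP, procaspase-3 30 min, then 50 min reaction, room temperature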
For `CN1CCC(Nc2cccc(F)c2)CC1`, the inhibition was inactive: -8.87%. As for `O=C(NCC1(N2CCCCC2)CCCCC1)c1cncc(Br)c1`, the figure is inactive: -5.47%; as for `COc1cc(OC)c(C(=O)NCC2(N(C)C)CCCCC2)cc1OC`, inactive: 4.31%; as for `O=C(NCC1(N2CCOCC2)CCCCC1)c1cc(F)c(F)cc1Cl`, inactive: -2.42%. As for `COc1ccc(CN(CCCl)CCCl)cc1Cl`, the inhibition was inactive: -2%. As for `CN(C)c1cccc(C(=O)NCC2(N3CCCCC3)CCCCC2)c1`, the figure is inactive: 4.04%; as for `CC(C)c1ccc(NC2CCN(C(=O)OC(C)(C)C)CC2)cc1`, inactive: 1.4%; as for `CN1CCN(CCOC(=O)C(O)(c2ccccc2)c2ccccc2)CC1`, inactive: -11.4%.

Take `COc1ccc(NC2CCN(C(=O)OC(C)(C)C)CC2)cc1`: the inhibition is inactive: 4.13%. For `CC(C)c1ccc(C(=O)NCC2(N3CCOCC3)CCCCC2)cc1`, the inhibition is inactive: 9.51%. As for `COc1cc(C(=O)NCC2(N3CCCCC3)CCCCC2)ccc1OC(F)F`, the figure is inactive: 4.05%; as for `O=C(NCC1(N2CCOCC2)CCCCC1)c1cc(=O)[nH]c2ccccc12`, inactive: 5.9%.

For `O=C(NCC1(N2CCCCC2)CCCCC1)c1cccc(C(F)(F)F)c1`, the inhibition is inactive: -2.11%. As for `O=C(NCC1(N2CCCCC2)CCCCC1)c1cccc([N+](=O)[O-])c1`, the figure is inactive: -4.04%; as for `CSc1ccc(C(=O)NCC2(N3CCOCC3)CCCCC2)cc1`, inactive: 5.58%.

In the case of `CCN1CCC(Nc2ccc(Cl)cc2)CC1`, the inhibition is inactive: -6.64%. As for `N#CC1(Nc2ccccc2)CCN(CCc2ccccc2)CC1`, the figure is inactive: 1.02%; as for `O=C(NCC1(N2CCCCC2)CCCCC1)c1ccc(OC(F)F)cc1`, inactive: 1.26%. In the case of `CCOC(=O)N1CCC(Nc2cccc(C)c2)CC1`, the inhibition is inactive: -4.77%.

Consider `Cc1ccc(OCC(C)C)c(CN(CCCl)CCCl)c1`, for which the inhibition is inactive: -27.1%.

For `CCCCOc1ccc(C(=O)NCC2(N3CCOCC3)CCCCC2)cc1`, the inhibition is inactive: 14.1%. In the case of `O=C(NCC1(N2CCCCC2)CCCCC1)c1ccc(F)cc1`, the inhibition is inactive: 8.47%. Consider `COc1ccc(NC2CCN(CCc3ccccc3)CC2)c(OC)c1`, for which the inhibition is inactive: 0.323%. Regarding `CCOC(=O)N1CCC(Nc2ccc(F)cc2)CC1`, the inhibition was inactive: -7.57%. As for `CCOc1ccc(C)cc1CN(CCCl)CCCl`, the figure is inactive: -19.5%. As for `CCOC(=O)N1CCC(Nc2ccc(OC)cc2)CC1`, the figure is inactive: -0.847%. For `O=C(NCC1(N2CCCCC2)CCCCC1)c1ccc(Cl)s1` the value was inactive: -5.19%; for `N#CC1(Nc2ccccc2)CCN(Cc2ccccc2)CC1`, inactive: 30.8%; for `O=C(OC1CN2CCC1CC2)C1c2ccccc2Oc2ccccc21` (configuration not stated), inactive: -3.03%. As to `COc1ccc(Cl)cc1C(=O)NCC1(N2CCOCC2)CCCCC1`, the inhibition is inactive: 7.26%. On to `O=C(NCC1(N2CCOCC2)CCCCC1)c1cc2ccccc2o1`, for which the inhibition is inactive: -1.05%. For `O=C(NCC1(N2CCCCC2)CCCCC1)c1ccc(Cl)nc1` the value was inactive: 4.06%; for `Cc1cc(C)cc(N(C(=O)c2ccccc2)C2CCN(C(=O)OC(C)(C)C)CC2)c1`, inactive: 29.5%. Consider `CSc1ccccc1C(=O)NCC1(N2CCCCC2)CCCCC1`, for which the inhibition is inactive: -0.701%. As for `O=C(NCC1(N2CCCCC2)CCCCC1)c1ccc(=O)[nH]c1`, the inhibition is inactive: 4.3%.

On to `O=C(NCC1(N2CCCCC2)CCCCC1)c1cccs1`, for which the inhibition was inactive: 23.7%. For `COc1ccc(C(=O)NCC2(N3CCCCC3)CCCCC2)cc1` the value was inactive: 6.48%; for `COc1ccc(C(=O)NCC2(N3CCCCC3)CCCCC2)c(OC)c1OC`, inactive: -15.1%; for `CC(C)(C)OC(=O)N1CCC(N(C(=O)c2ccccc2)c2ccc(F)cc2)CC1`, inactive: 2.44%. In the case of `CCCOc1ccc(C)cc1CN(CCCl)CCCl`, the inhibition was inactive: -24.5%. As for `CN1CCC(Nc2ccc(Cl)cc2)CC1`, the figure is inactive: -5.43%; as for `CCC(CO)(C(=O)OC1CN2CCC1CC2)c1ccccc1` (configuration not stated), inactive: 3.24%; as for `COc1cc(OC)cc(C(=O)NCC2(N3CCOCC3)CCCCC2)c1`, inactive: 2.64%.

`COc1cccc(C(=O)N(c2cc(C)cc(C)c2)C2CCN(C(=O)OC(C)(C)C)CC2)c1`: the inhibition was inactive: 28.9%.

Take `CCCOc1ccc(C(=O)NCC2(N(C)C)CCCCC2)cc1`: the inhibition is inactive: -2.04%.

For `CC(C)(C)OC(=O)N1CCC(Nc2ccccc2)CC1`, the inhibition is inactive: 3.42%.

Turning to `O=C(O)C1(Nc2ccccc2)CCN(Cc2ccccc2)CC1`, the inhibition is inactive: 8.44%.

`CCOc1ncccc1C(=O)NCC1(N2CCOCC2)CCCCC1`: the inhibition is inactive: -2.86%. As for `CN1CCC(Nc2ccc(F)c(Cl)c2)CC1`, the figure is inactive: -4.24%.

On to `O=C(NCC1(N2CCCCC2)CCCCC1)c1ccco1`, for which the inhibition is inactive: 11.3%.

For `CN(C)c1ccc(C(=O)NCC2(N3CCCCC3)CCCCC2)cc1`, the inhibition was inactive: -6.35%. As for `CCN1CCC(Nc2cccc(F)c2)CC1`, the figure is inactive: 2.09%; as for `Cc1ccc(C(=O)NCC2(N3CCCCC3)CCCCC2)o1`, inactive: -1.85%. For `Fc1ccccc1NC1CCN(Cc2ccccc2)CC1` the value was inactive: -12.3%; for `COc1cc(OC)cc(C(=O)NCC2(N3CCCCC3)CCCCC2)c1`, inactive: 15.3%.

As to `c1ccc(CN2CCC(Nc3ccccc3)CC2)cc1`, the inhibition was inactive: 5.96%. As for `CCCN1CCC(Nc2cc(OC)cc(OC)c2)CC1`, the figure is inactive: -3.22%. For `CN(C)C1(CNC(=O)c2cccc(C#N)c2)CCCCC1`, the inhibition was inactive: -0.876%. For `CC(C)(C)OC(=O)N1CCC(N(C(=O)c2ccccc2)c2ccc(Cl)cc2)CC1` the value was inactive: 13.4%; for `N#Cc1ccc(C(=O)NCC2(N3CCCCC3)CCCCC2)cc1`, inactive: -9.79%; for `CCc1cc(C(=O)NCC2(N3CCCCC3)CCCCC2)sc1C`, inactive: 15.1%. As for `O=C(OC1CN2CCC1CC2)C1c2ccccc2C=Cc2ccccc21` (configuration not stated), the figure is inactive: 0.594%; as for `N/C(=N\O)c1c(N)no[n+]1[O-]`, inactive: 0.81%; as for `CCOC(=O)N1CCC(Nc2ccc(C)cc2)CC1`, inactive: -5.24%. `COc1ccc(C(=O)NCC2(N3CCOCC3)CCCCC2)cc1OC`: the inhibition is inactive: 4.85%. As for `O=C(NCC1(N2CCOCC2)CCCCC1)c1cc(Br)ccc1Cl`, the figure is inactive: 9.08%; as for `COc1cc(C(=O)NCC2(N3CCOCC3)CCCCC2)cc(OC)c1C`, inactive: 0.645%.

The record behind these values is PubChem BioAssay AID489030 (Sanford-Burnham Center for Chemical Genomics, 2010).
